The target in the experiment is D(1A) dopamine receptor (Rattus norvegicus, UniProt P18901).

Chains of the proteins cited; added tags and fusions are not shown.
UniProt P18901, whole entry: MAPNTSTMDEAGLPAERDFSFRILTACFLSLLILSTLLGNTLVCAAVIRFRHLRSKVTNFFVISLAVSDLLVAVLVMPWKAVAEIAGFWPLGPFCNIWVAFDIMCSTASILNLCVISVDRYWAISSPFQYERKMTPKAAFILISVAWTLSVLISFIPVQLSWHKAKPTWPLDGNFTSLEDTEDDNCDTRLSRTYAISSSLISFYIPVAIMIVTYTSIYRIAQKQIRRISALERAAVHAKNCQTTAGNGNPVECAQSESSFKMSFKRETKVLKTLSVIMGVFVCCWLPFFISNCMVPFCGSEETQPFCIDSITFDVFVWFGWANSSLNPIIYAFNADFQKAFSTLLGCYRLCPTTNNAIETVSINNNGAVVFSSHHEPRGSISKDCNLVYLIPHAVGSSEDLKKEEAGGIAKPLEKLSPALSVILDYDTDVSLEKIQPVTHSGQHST

A value given as a limit tells only on which side of the number the result lay.

Turning to `CN1C(=O)CN=C(c2ccccc2)c2cc(Cl)ccc21`, the inhibition constant (Ki) is greater than 10 µM.

In general, Ki refers to the dissociation constant of the complex between target and ligand, obtained from inhibition or displacement.

The record behind these values is BindingDB's records for doi:10.1016/0024-3205(84)90540-x (Schering-Plough, 1984).
